In patent US5591734A, “17-(3-furyl)-5β, 14β-androstane derivatives active on the cardiovascular system, processes for their preparation and pharmaceutical compositions containing same” (Sigma-Tau Industrie Farmaceutiche Riunite S.p.A., priority 1992, dated 1997):

Tested on: spontaneous hypertensive rats of the Milan (MHS)
Test: antihypertensive activity in spontaneous hypertensive rats (MHS), indirect tail-cuff method
Type: in vivo, rat
Conditions: 10 mg/Kg/os daily for ten days in Methocel 0.5% w/v; 7 rats; controls 172 +/- 2.0

C[C@]12CC[C@H](O)C[C@H]1CC[C@@H]1[C@@H]2CC[C@]2(C)[C@@](O)(C3=CC(=O)OC3)CC[C@]12O [Ref. Comp., 3β,14β,17α-trihydroxy-5β-card-20(22)-enolide, reference compound]
SBP (SYSTOLIC BLOOD PRESSURE FALL IN SPONTANEOUS HYPERTENSIVE RATS (MHS)): 171 +/- 1.9 mm Hg
